Legend:
Details in all cases: liposome binding signal on yeast proteome chip, Cy3-streptavidin detection
[1] = tested on: phosphatidylcholine (PC) liposomes; assay: Yeast proteome chip probed with PC liposomes
Source text: (§1) To identify PI-binding proteins in yeast, liposomes were used as probes because the liposome provides the most relevant physiological condition to assay the interactors. Six types of liposomes were used. Each contains phosphatidylcholine (“PC”) with 1% (w/w) N-(biotinoyl)-1,2-dihexadecanoyl-sn-glycero-3-phosphoethanolamine, triethylammonium salt (biotin DHPE). The biotinylated lipid serves as a label that can be detected by Cy3-streptavidin (21). In addition to PC, the five other liposomes contain either 5% (w/w) PI(3)P, PI(4)P, PI(3,4)P2, PI(4,5)P2, or PI(3,4,5)P3 (FIG. 3A). Each of these phospholipids has been found in yeast except PI(3,4,5)P3 (Odorizzi et al., 2000, TIBS 25:229; Fruman et al., 1998, Annu. Rev. Biochem. 67:481; Martin, 2000, Annu. Rev. Cell Dev. Bio. 14:231; Wera et al., 2001, FEMS Yeast Res. 1406:1).
(§2) The protein-liposome interaction was assayed as follows. Appropriate amounts of each lipid in chloroform were mixed and dried under nitrogen. The lipid mixture was resuspended in TBS buffer by vortexing. The liposomes were created by sonication. Blocked proteome chips were washed three to five times in PBS buffer, and the extra liquid on the glass surface was removed by tapping the slides vertically on a KIMWIPE™. 200 μl of liposome solution was added to the proteome chip and immediately covered by a hydrophobic plastic cover slip (GRACE BIO-LAB™, USA). […]

PI(3)P liposomes = assay: Yeast proteome chip probed with PI(3)P liposomes
Source text: as §1, §2

PI(4,5)P2 liposomes = assay: Yeast proteome chip probed with PI(4,5)P2 liposomes
Source text: as §1, §2

PI(3,4,5)P3 liposomes = assay: Yeast proteome chip probed with PI(3,4,5)P3 liposomes
Source text: as §1, §2

PI(4)P liposomes = assay: Yeast proteome chip probed with PI(4)P liposomes
Source text: as §1, §2

PI(3,4)P2 liposomes = assay: Yeast proteome chip probed with PI(3,4)P2 liposomes
Source text: as §1, §2

B1: YEL048C: yeast GST-HisX6 fusion protein on proteome chip (protein, UniProt P32613 1-152, looked up)
TRAPP-associated protein TCA17: MSLRPCFVSLIDESDKPILIYVPNEAENEMNDVLKYNVLSNISLDYFESALVEWHSLDSKPLLKSIFQLEGVSVFAMLIKQTGLKIVIGFEQKSLSGADDEFEAINQIFETVRKIYIRVKCNPLLVSGDEKSIIKSLERKFDELFISTEVEL
modifications: GST-His6 tag
notes: yeast GST-HisX6 fusion protein on proteome chip
[1]
  PC: 140.58
PI(3)P liposomes
  PI(3)P: 17.75
PI(4,5)P2 liposomes
  PI(4, 5)P2: 45.07
PI(3,4,5)P3 liposomes
  PI(3, 4, 5)P3: 87.75
PI(4)P liposomes
  PI(4)P: 68.81
PI(3,4)P2 liposomes
  PI(3, 4)P2: 76.13

From patent US20050182242A1, “Global analysis of protein activities using proteome chips” (priority 2001, published 2005)
